# Yeast mating assay B: variants of the scFv Ab-14

Source: Li et al. 2023 (doi:10.1038/s41467-023-39022-2), MIT Lincoln Laboratory and A-Alpha Bio; data file from the FLAb repository.

All variants were tested on one target, the spike HR2 peptide PDVDLGDISGINAS (SARS-CoV-2).

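Phage display of a naive human antibody library on the peptide gave the parent. The variants were designed computationally from a first round of random CDR variants and then made and measured. Their group label is 14H_Rand (Rand: our label for a block that the file lists under HC and that is probably the random mutants of the ten best first-round binders). In AlphaSeq, yeast of one mating type display the scFv and yeast of the other type display the target. After mating in shaken culture at 30 °C for 16 h, diploids were selected and their barcode pairs sequenced. Scores were corrected for input abundance and mapped to Kd with protein pairs of known affinity run in the same pool. There are six technical replicates.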

Parent scFv Ab-14: VH joined to VL by a (GGGGS)3 linker. Changes lie in the heavy chain CDRs alone.
VH: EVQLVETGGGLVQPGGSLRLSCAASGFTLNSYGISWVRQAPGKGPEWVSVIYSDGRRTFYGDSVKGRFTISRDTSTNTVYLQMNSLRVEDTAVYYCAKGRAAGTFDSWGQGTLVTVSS
VL: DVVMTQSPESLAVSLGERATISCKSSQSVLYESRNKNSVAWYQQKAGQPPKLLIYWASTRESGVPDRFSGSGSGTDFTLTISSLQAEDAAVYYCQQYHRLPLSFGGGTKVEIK

Variants are written as CDR1, CDR2 and CDR3 of the heavy chain (limits as in the source). Parent: GFTLNSYGIS, VIYSDGRRTFYGDSVK, GRAAGTFDS.
Affinities are written as log10 Kd with Kd in nM; a lower number is a better binder.
The mean shown is taken over the replicates in which the pair was detected.
An entry "nd" has no value in the source: the pair was not observed among the diploids in that replicate. This suggests poor binding but is not conclusive.

CDR-H1 | CDR-H2 | CDR-H3 | log10 Kd (nM) by replicate | mean, log10 nM | control signals
GFDLNSYGIS | VIYSDIRRTFYGDSVK | GRAAGWFNS | nd / nd / nd / nd / nd / nd | nd | 0 of 18
GFTLNEYGIS | VIYWDGRRTFYGDSVK | GDAAVTFDQ | nd / nd / nd / nd / nd / nd | nd | 0 of 18
GWTLNSYGIS | VIYSDARRTFYDDSVK | GQLAGTFDS | nd / nd / nd / nd / nd / nd | nd | 0 of 18
GFTLNDYGIS | VIYSLGRRTAYQDSRK | GRAALTFIS | nd / nd / nd / nd / nd / nd | nd | 0 of 18
GFTLNEYGIL | VIYSDGRRTFYTDSVK | GRFAGTFDS | nd / nd / nd / nd / nd / nd | nd | 0 of 18
GFTLNSYGIS | VIYADGRRTFYGDSVK | GRAWGTNKS | nd / nd / nd / 1.38 / nd / nd | 1.38 | 0 of 18
GFTLNELGIS | VIYSDGRRTFYTDSVK | GRFAGTFDS | nd / 3.07 / 2.06 / 1.13 / 1.84 / nd | 2.02 | 0 of 18
GFTWNSYGIS | VIYSCGRRTFYDDSVK | NQLAGTFDS | nd / nd / nd / nd / nd / nd | nd | 0 of 18
GATLNESGIS | VIYSDGRRTFYGNSVK | GRAAVTFDQ | nd / nd / nd / nd / nd / nd | nd | 1 of 18 (2.09)
GFTLDDYGIS | VPYSDGRRTFYGDSVK | GRAAGTALL | nd / nd / nd / nd / nd / nd | nd | 0 of 18
GATLSQYGIS | VWYSDGWRTFYSDSVK | GRAAGFFRS | nd / nd / nd / nd / nd / nd | nd | 0 of 18
GFTLNSYGIM | VIYSDGRRTFYDDSVK | GQLAGTTDS | nd / nd / nd / nd / nd / nd | nd | 0 of 18
GFTLNDYGIS | VFYSDGLRTQYIDSVK | GRAAGTFDS | nd / nd / nd / nd / 3.59 / nd | 3.59 | 0 of 18
GFDFNSYGIS | VIYSDGRRTFYGDSNK | GRAAGWFNS | nd / nd / nd / nd / nd / nd | nd | 0 of 18
GFTLNDYGIS | VIYSDGRRTQYIDSVK | GRAAGTRDS | nd / nd / nd / nd / nd / nd | nd | 0 of 18
GFTLNSYGIP | VIYADGRRTFYGDSVK | GRAAGTNKS | nd / nd / nd / nd / nd / nd | nd | 2 of 18 (2.69)
GFTLNQMGIS | VIYADGRRTQYIDSVK | GRAAGTFDS | 0.29 / 0.55 / 0.65 / 0.31 / 0.01 / 0.29 | 0.35 | 0 of 18
WFSLNEYGIS | VIYSGGRRTFYGDSVK | GRAAVTFDQ | nd / nd / nd / nd / nd / nd | nd | 0 of 18
GFTLNSYGIQ | VIYSDGRHTFYDDCVK | GQLRGTFDS | nd / nd / nd / nd / nd / nd | nd | 0 of 18
TFTLNSYGIS | VIYSDGARTFYDDSTK | GQLAGTFDD | nd / nd / nd / nd / 1.17 / nd | 1.17 | 0 of 18
GFDLNSYGIS | VIYSDGRRTFYGDSVK | GRAAGWFLS | nd / nd / nd / nd / nd / 2.68 | 2.68 | 0 of 18
GFTLNSYGIS | VIYADGRRTFYGDSVK | GRAAQTNKS | nd / nd / nd / nd / nd / nd | nd | 0 of 18
GFTIDSYGIS | VIDSDGRRTFEGDSVK | GRAAGTALS | nd / nd / nd / nd / nd / nd | nd | 0 of 18
GFELNEYGIS | VIYSDGRRTFRGDSVK | GRAAVTQDQ | nd / nd / nd / nd / nd / nd | nd | 0 of 18
GFDLNSYGIS | VIYSDGRRTFGGDSVK | GRAAGWFNS | nd / nd / nd / nd / nd / nd | nd | 0 of 18
GFTLNQYGIS | VIYSDKRRTFYSDSVK | GRAAGFFDS | nd / nd / nd / nd / nd / nd | nd | 1 of 18 (0.44)
GFTLNSYGIS | VIYSDGRRTFYDDSVK | GQLAFTFDS | nd / nd / nd / nd / nd / nd | nd | 0 of 18
GFTLNDYGIS | VIYSDGRRTQYIDSLK | GRAAGTFDS | nd / nd / nd / nd / nd / nd | nd | 0 of 18
GFTLDSYGIS | VIYSDGQRTFKLDSVK | GRAAGTALS | nd / nd / nd / nd / nd / nd | nd | 0 of 18
GFTLPDYGIS | VIYSDKRRTFYGDSVK | GRAALTFIS | nd / 2.50 / nd / nd / nd / nd | 2.50 | 0 of 18
GFDLNSYGTS | VIYSDGRHTFYGDSVK | GRAAGWFNS | nd / nd / nd / nd / nd / nd | nd | 0 of 18
GFELNSYGIS | VIYADGRRTFMGDSVK | GRAAGTNTS | nd / nd / nd / 1.97 / 2.00 / nd | 1.98 | 0 of 18
GFTLNQYGKS | VIYSDGRRTSYSDSVK | GRAAGFFDS | nd / nd / nd / nd / nd / nd | nd | 0 of 18
GFTLNEYGIS | VITSDGRRTFYTDSVK | GRFAGTFDS | nd / 1.96 / nd / nd / nd / nd | 1.96 | 0 of 18

Of ten entries with the parent sequence, four were seen in most replicates (averages 0.34 to 2.37), three in one and three in none, so single entries are noisy.
The range of this assay differs from that of the first round, and the authors advise against merging the two.
In the paper, a design with two or fewer of six values counts as a poor binder.
Three control strains display no target. For all heavy chain designs, 1% of the pairings with them gave a signal, with a median of 2.08 and one signal in twenty below 0.84, so weak values seen in few replicates may be background. The control count says in how many pairings with the empty strains this scFv gave a signal, with their mean in brackets.